From PMC3852207

Biological target: GST-p50 RhoGAP
Assay: scintillation proximity assay (direct); GST-p50 RhoGAP on SPA beads; [3H]GTP·Cdc42 or [3H]GTP·Rac1 in solution; values used as fixed Kd in the competition fits

Substance: Q61L Rac1·[3H]GTP (from UniProt P63000 1-192) (natural protein)
- Kd: 86 nM
